The values that follow come from US6558922B1, “Methods and compositions for production of floral scent compounds” (Purdue Research Foundation, priority 1999, dated 2003).

Read-outs that look alike come from different tables or passages of the source.

As for “S-adenosyl-L-methionine:benzoic acid carboxyl methyltransferase [BAMT]”, the Stability result was “completely lost activity” (30-min incubation at 65° C.), 100% (30 min at 20° C.), 60% (30 min at 30° C.) and 20% (30 min at 42° C.). Besides, the Storage stability result by setting is: (stored at −80° C.) “highly stable for several months”; (stored in buffer A at 4° C.) “stable for one week”.
